Reference: patent publication US7533723B2, “Well bore treatment fluid” (Schlumberger Technology Corporation, priority 2003, dated 2009)

Experiment: Solubility in brine, oils and solvents (heat to 60° C., cool to 25° C., visual inspection, residue filtered and weighed)
Conditions: T=25° C.; for Solubility, Oil wt %: Mineral spirits, bp 179–210° C.; for Solubility, Brine wt %: brine = 1 mol/L NaCl, wet salts as active (dry) weight
[1] = EB (ethylene glycol butyl ether)

| Substance | Dissolution in DOWANOL DPM (FIG. 2) (5 wt % in DPM) | Solubility, Solvent wt % (solvent chemistry) (1,3-butanediol) | Solubility, Solvent wt % (solvent chemistry) (4-hydroxy 4-methyl 2-pentanone) | Dissolution in DOWANOL DPM (FIG. 2) (20 wt % in DPM) | Solubility, Solvent wt % (solvent chemistry) (DPM (dipropylene glycol methyl ether)) | Solubility, Solvent wt % (solvent chemistry) [1] | Solubility, Solvent wt % (solvent chemistry) (IPA (isopropanol)) | Solubility, Oil wt % | Solubility, Solvent wt % (solvent chemistry) (PnB (propylene glycol butyl ether)) | Solubility, Brine wt % | Solubility, Solvent wt % (solvent chemistry) (butan-1-ol) | Solubility, Solvent wt % (solvent chemistry) (butan-2-ol) | Solubility, Solvent wt % (solvent chemistry) (octan-1-ol) |
| --- | --- | --- | --- | --- | --- | --- | --- | --- | --- | --- | --- | --- | --- |
| calcium pivalate [Ca Pivalate, reference compound] | has not dissolved | – | – | – | – | – | – | – | – | – | – | – | – |
| calcium neo-decanoate [Ca neo-Decanoate (dry^B)] | – | 0.5 wt % | ≧30 (4-hydroxy 4-methyl 2- wt % | no visible precipitate | Glycol ethers: ≧30 (DPM^(3)), wt % | ≧30 (EB^(4)), ≧30 (PnB^(5)). wt % | Alcohols: ≧30 (IPA^(6)), ≧30 wt % | 0.5^(2) wt % | ≧30 (EB^(4)), ≧30 (PnB^(5)). wt % | 0.5 wt % | Alcohols: ≧30 (IPA^(6)), ≧30 wt % | (butan-1-ol), ≧30 (butan-2- wt % | ≥ 30 wt % |
| calcium neo-tridecanoate [Ca neo-Tridecanoate (dry)] | – | – | – | – | – | ≧30 (EB^(4)) wt % | – | 0.5^(2) wt % | – | 0.5 wt % | – | – | – |
